Reference: PMC4040926, “Re-examining how complexin inhibits neurotransmitter release” (eLife, 2014)

Molecular target: T1, synaptobrevin SNARE motif, rat synaptobrevin 2 […] (rat)
T1 construct: synaptobrevin 2, rat, […] (SNARE motif); Uniformly 2H,15N-labelled in the NMR experiment; also called Syb; 2H,15N-Syb; source: E. coli, purified
Assay: NMR titration; 1H-15N TROSY-HSQC of 2H,15N-labelled synaptobrevin SNARE motif free and incorporated into the SNARE complex assembled from the purified fragments (overnight, 4°C); spectra at 32°C
Settings: both partners purified

- binding result: binds
B1: SNAP-25 C-terminal SNARE motif, human SNAP-25 residues 141-203 (domain or fragment, UniProt P60880 141-203, looked up)
chain: ARENEMDENLEQVSGIIGNLRHMALDMGNEIDTQNRQIDRIMEKADSNKTRIDEANQRATKML
notes: SNAP-25, human, residues 141-203 (C-terminal SNARE motif); also called SNC; SNAP-25 (141-203); source: E. coli, purified
